Measurements taken from ChEMBL document CHEMBL4190276, “Design, synthesis and evaluation of coumarin-pargyline hybrids as novel dual inhibitors of monoamine oxidases and amyloid-β aggregation for the treatment of Alzheimer's disease” (Eur J Med Chem, 2017).

Sequences of proteins named here, by UniProt entry; tags and fusion partners are left off.
UniProt P21397, whole entry: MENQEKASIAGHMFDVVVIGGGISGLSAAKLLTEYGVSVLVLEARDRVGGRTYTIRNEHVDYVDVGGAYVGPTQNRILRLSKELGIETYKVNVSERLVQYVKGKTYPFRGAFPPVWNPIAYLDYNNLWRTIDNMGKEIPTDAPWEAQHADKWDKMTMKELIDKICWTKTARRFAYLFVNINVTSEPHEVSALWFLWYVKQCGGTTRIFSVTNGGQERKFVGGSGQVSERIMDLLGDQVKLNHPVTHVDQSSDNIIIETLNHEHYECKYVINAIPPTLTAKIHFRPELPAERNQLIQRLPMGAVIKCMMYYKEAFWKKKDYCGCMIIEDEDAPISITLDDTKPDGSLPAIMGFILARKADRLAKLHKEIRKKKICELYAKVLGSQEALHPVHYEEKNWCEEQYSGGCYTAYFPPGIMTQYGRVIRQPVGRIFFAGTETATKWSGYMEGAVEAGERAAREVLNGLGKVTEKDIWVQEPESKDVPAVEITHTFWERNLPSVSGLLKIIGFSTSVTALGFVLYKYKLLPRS

Legend:
[1] = molecular target: T1, Amine oxidase [flavin-containing] A (Homo sapiens, UniProt P21397); experiment: Inhibition of recombinant human MAO-A using p-tyramine as substrate preincubated for 15 mins followed by substrate addition measured after 20 mins by amplex red reagent based fluorescence assay
[2] = molecular target: T1, Amine oxidase [flavin-containing] A

C#CCN(C)Cc1ccccc1 [PARGYLINE]
IC50 [1]: 3520 nM | IC50 [2]: 11.5 nM
